Literature values as cited in US10953042B2, “Vanadium insulin-mimetics, methods of preparation, and methods for treatment of diabetes” (The University of Trinidad and Tobago, priority 2017, dated 2021).

System: phosphatase
Conditions: free state; cited from earlier work

SMILES: O=C(O)c1cccc(C(=O)O)n1 [dipicolinic acid, Pyridine-2,6-dicarboxylic acid]
- phosphatase or insulin-like activity: insignificant
